Data as given in patent US12296048B2, “Polymer particles for neutrophil injury” (THE REGENTS OF THE UNIVERSITY OF MICHIGAN, priority 2019, dated 2025).

Experiments:
human RBCs = assay: Hemolysis assay
[1] = system: P. aeruginosa infected mice; assay: P. aeruginosa lung infection mouse model of ALI/ARDS; settings: in vivo

In the case of “salicylate polyanhydride ester that hydrolyzes to salicylic acid [Poly-A particles]”, the “induce hemolysis when placed in human blood” value (human RBCs) is reported as “do not” and the “impact on host's ability to clear a primary lung infection” value [1] is reported as “do not negatively impact”.
